Assay results taken from publication PMC2225448 (Structure(London, England:1993), 2007).
pKd: −log10 of the molar value. Like-named read-outs stand apart in the source and are kept apart here.

The chains behind the UniProt entries cited, without tags or fusion partners. Residues count along the entry.
UniProt O14508, 32-198 limits assumed: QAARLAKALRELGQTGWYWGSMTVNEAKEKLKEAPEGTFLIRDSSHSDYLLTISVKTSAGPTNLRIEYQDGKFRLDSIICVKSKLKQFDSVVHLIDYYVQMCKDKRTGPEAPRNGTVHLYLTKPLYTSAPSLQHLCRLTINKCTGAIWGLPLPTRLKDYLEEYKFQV
UniProt Q8WXH5, 274-437: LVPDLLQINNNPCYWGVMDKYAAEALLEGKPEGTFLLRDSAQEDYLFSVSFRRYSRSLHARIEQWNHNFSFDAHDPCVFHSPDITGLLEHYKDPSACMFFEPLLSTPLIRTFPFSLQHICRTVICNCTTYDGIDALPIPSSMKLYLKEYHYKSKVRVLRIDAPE

Assays:
[1] = molecular target: T1, SOCS2/ElonginBC (Homo sapiens, UniProt O14508+Q15369+Q15370); conditions: ITC, association constant; ref Bullock et al., 2006; cited from earlier work
[2] = molecular target: T2, SOCS4/ElonginBC (Homo sapiens, UniProt Q15369+Q15370+Q8WXH5); assay: ITC binding of phosphotyrosine peptides to SOCS4/ElonginBC; conditions: 50 mM HEPES pH 7.5, 150 mM NaCl, 1 mM DTT, 20°C; for pKd: 0.3–0.4 mM peptide injected into 15 μM protein, single binding site model; for KB × 10^5: association constant, ± curve fitting error
T2 construct: Human SOCS4 (amino acids 274–437); made in house; host or cells: E. coli BL21(DE3)

[3] = molecular target: T1, SOCS2/ElonginBC; assay: ITC binding of phosphotyrosine peptides to SOCS2/ElonginBC; conditions: 50 mM HEPES pH 7.5, 150 mM NaCl, 1 mM DTT, 20°C; for pKd: 0.3–0.4 mM peptide injected into 15 μM protein, single binding site model; for KB × 10^5: association constant, ± curve fitting error

Row | pKd [2] | KB × 10^5 [2] | pKd [3] | KB × 10^5 [3] | SMILES | KB × 10^5 [1]
1 | – | – | – | – | CC[C@H](C)[C@H](NC(=O)[C@@H](NC(=O)[C@H](Cc1ccc(OP(=O)(O)O)cc1)NC(=O)[C@H](CCC(=O)O)NC(=O)[C@H](Cc1ccccc1)NC(=O)[C@H](CO)NC(=O)[C@H](C)N)[C@@H](C)O)C(=O)N[C@@H](CC(C)C)C(=O)N[C@@H](CC(=O)O)C(=O)N1CCC[C@H]1C(=O)N[C@@H](CO)C(=O)O [EpoR pY402] | 1.42 ± 0.27 10^5 M^−1
2 | 5.29 | 1.96 ± 0.11 10^5 M^−1 | 4.95 | 0.89 ± 0.64 10^5 M^−1 | CC[C@H](C)[C@H](NC(=O)[C@H](CC(=O)O)NC(=O)[C@H](CO)NC(=O)[C@@H](NC(=O)[C@H](CCC(N)=O)NC(=O)[C@H](C)NC(=O)[C@H](Cc1ccc(OP(=O)(O)O)cc1)NC(=O)[C@H](Cc1ccccc1)NC(=O)[C@H](CC(=O)O)NC(=O)[C@@H](NC(=O)[C@@H](N)CC(N)=O)[C@@H](C)CC)C(C)C)C(=O)N[C@H](C(=O)O)[C@@H](C)O [GHR pY487] | –
3 | – | – | – | – | CC[C@H](C)[C@H](NC(=O)[C@H](CO)NC(=O)[C@@H](NC(=O)[C@H](Cc1ccc(OP(=O)(O)O)cc1)NC(=O)[C@H](CC(=O)O)NC(=O)[C@@H]1CCCN1C(=O)[C@@H](NC(=O)[C@@H]1CCCN1)C(C)C)[C@@H](C)O)C(=O)N[C@@H](Cc1c[nH]cn1)C(=O)N[C@H](C(=O)N[C@H](C(=O)O)C(C)C)[C@@H](C)CC [GHR pY595] | 6.08 ± 1.03 10^5 M^−1
4 | 5.54 | – | 5.09 | 1.23 ± 0.34 10^5 M^−1 | CC(C)[C@H](NC(=O)[C@H](CCCCN)NC(=O)[C@H](Cc1ccc(O)cc1)NC(=O)[C@H](Cc1ccc(OP(=O)(O)O)cc1)NC(=O)[C@H](CCC(=O)O)NC(=O)[C@H](CCCCN)NC(=O)[C@H](CC(=O)O)NC(=O)[C@@H](N)CCC(N)=O)C(=O)N[C@@H](CCCCN)C(=O)N[C@@H](CCC(=O)O)C(=O)N1CCC[C@H]1C(=O)NCC(=O)O [JAK2 pY1007] | –
5 | – | – | – | 1.20 ± 0.23 10^5 M^−1 | CC[C@H](C)[C@H](NC(=O)[C@H](Cc1ccc(O)cc1)NC(=O)[C@@H](NC(=O)[C@H](Cc1ccc(OP(=O)(O)O)cc1)NC(=O)[C@H](CC(N)=O)NC(=O)[C@H](CC(N)=O)NC(=O)CNC(=O)[C@@H](N)CC(N)=O)C(C)C)C(=O)N[C@@H](CC(=O)O)C(=O)N1CCC[C@H]1C(=O)N[C@H](C(=O)O)[C@@H](C)O [KIT pY568] | –
6 | 5.26 | 1.82 ± 0.13 10^5 M^−1 | – | – | CC(C)C[C@H](NC(=O)[C@H](Cc1ccc(OP(=O)(O)O)cc1)NC(=O)[C@H](CS)NC(=O)[C@@H](NC(=O)[C@H](CO)NC(=O)[C@@H](N)CCCCN)C(C)C)C(=O)NCC(=O)N[C@H](C(=O)N[C@H](C(=O)N[C@@H](CO)C(=O)N[C@H](C(=O)N[C@@H](CC(N)=O)C(=O)O)C(C)C)[C@@H](C)O)C(C)C [LeptinR pY1077] | –
7 | 5.15 | 1.41 ± 0.17 10^5 M^−1 | – | – | CC(C)[C@H](NC(=O)[C@@H](NC(=O)[C@@H](NC(=O)[C@H](CO)NC(=O)[C@H](Cc1ccc(OP(=O)(O)O)cc1)NC(=O)[C@H](CCC(N)=O)NC(=O)[C@@H](NC(=O)[C@@H](NC(=O)[C@@H](N)CO)[C@@H](C)O)C(C)C)[C@@H](C)O)C(C)C)C(=O)N[C@@H](Cc1c[nH]cn1)C(=O)N[C@@H](CO)C(=O)O [gp130 pY759] | –
